Reference: ChEMBL document CHEMBL1139680, “2,4-Disubstituted piperidines as selective CC chemokine receptor 3 (CCR3) antagonists: synthesis and selectivity” (Bioorg Med Chem Lett, 2006)

Species on record: Homo sapiens
Experiment: Selectivity for CCR3 over 5HT2A

SMILES: CCCN1CC[C@@H](Cc2ccc(F)cc2)C[C@@H]1CCCNC(=O)Nc1cccc(C(C)=O)c1
- Selectivity ratio: 170
